Permeability data for macrocyclic peptides

Source: CycPeptMPDB (Li et al. 2023), which took these values from Kelly et al. 2021, doi:10.1021/jacs.0c06115.

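Conditions beyond the assay type are not listed; see the original paper. Other peptides of the study may be missing here. Peptides that the database sets to -10, its floor, are left out.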

PAMPA is the parallel artificial membrane permeability assay, which has no cells and reads passive diffusion. Permeability is in 10^-6 cm/s, converted from the database's log10 values; higher is more permeable.

compound	PAMPA (10^-6 cm/s)
CC(=O)N1CCC[C@H]1C(=O)N(C)[C@H](CC(C)C)C(=O)N[C@@H]1C(=O)N(C)[C@H](CC(C)C)C(=O)N(C)[C@@H](CC(C)C)C(=O)N(C)[C@H](CC(C)C)C(=O)N(C)[C@H](C)C(=O)N[C@H](CC(C)C)C(=O)N2CCC[C@H]2C(=O)O[C@@H]1C	6.5
CC(=O)N[C@@H]1C(=O)N2CCC[C@H]2C(=O)N(C)[C@H](CC(C)C)C(=O)N[C@@H](CC(C)C)C(=O)N[C@@H](CC(C)C)C(=O)N[C@H](CC(C)C)C(=O)N[C@H](C)C(=O)N[C@@H](CC(C)C)C(=O)N2CCC[C@@H]2C(=O)O[C@@H]1C	0.076
CC(=O)N[C@@H]1C(=O)N2CCC[C@H]2C(=O)N(C)[C@H](CC(C)C)C(=O)N(C)[C@H](CC(C)C)C(=O)N(C)[C@@H](CC(C)C)C(=O)N(C)[C@H](CC(C)C)C(=O)N(C)[C@H](C)C(=O)N[C@@H](CC(C)C)C(=O)N2CCC[C@@H]2C(=O)O[C@@H]1C	5.1
CC(=O)N1CCC[C@@H]1C(=O)N(C)[C@H](CC(C)C)C(=O)N[C@@H]1C(=O)N[C@@H](CC(C)C)C(=O)N[C@@H](CC(C)C)C(=O)N(C)[C@@H](CC(C)C)C(=O)N[C@@H](C)C(=O)N[C@H](CC(C)C)C(=O)N2CCC[C@@H]2C(=O)O[C@@H]1C	0.14
CC(=O)N1CCC[C@H]1C(=O)N[C@@H]1C(=O)N[C@H](CC(C)C)C(=O)N[C@H](CC(C)C)C(=O)N[C@@H](CC(C)C)C(=O)N(C)[C@H](CC(C)C)C(=O)N(C)[C@@H](C)C(=O)N[C@@H](CC(C)C)C(=O)N2CCC[C@@H]2C(=O)O[C@@H]1C	1.3
CC(=O)N1CCC[C@@H]1C(=O)N(C)[C@@H](CC(C)C)C(=O)N[C@@H]1C(=O)N(C)[C@H](CC(C)C)C(=O)N[C@H](CC(C)C)C(=O)N[C@@H](CC(C)C)C(=O)N[C@@H](C)C(=O)N[C@@H](CC(C)C)C(=O)N2CCC[C@@H]2C(=O)O[C@@H]1C	0.13
CC(=O)N1CCC[C@H]1C(=O)N(C)[C@H](CC(C)C)C(=O)N[C@@H]1C(=O)N[C@H](CC(C)C)C(=O)N(C)[C@H](CC(C)C)C(=O)N(C)[C@@H](CC(C)C)C(=O)N(C)[C@@H](C)C(=O)N[C@@H](CC(C)C)C(=O)N2CCC[C@H]2C(=O)O[C@@H]1C	7.2
CC(=O)N1CCC[C@H]1C(=O)N(C)[C@H](CC(C)C)C(=O)N[C@@H]1C(=O)N[C@@H](CC(C)C)C(=O)N(C)[C@@H](CC(C)C)C(=O)N[C@@H](CC(C)C)C(=O)N(C)[C@H](C)C(=O)N[C@H](CC(C)C)C(=O)N2CCC[C@@H]2C(=O)O[C@@H]1C	4.5
CC(=O)N1CCC[C@@H]1C(=O)N(C)[C@H](CC(C)C)C(=O)N[C@@H]1C(=O)N[C@H](CC(C)C)C(=O)N[C@@H](CC(C)C)C(=O)N[C@H](CC(C)C)C(=O)N[C@@H](C)C(=O)N[C@H](CC(C)C)C(=O)N2CCC[C@H]2C(=O)O[C@@H]1C	0.072
CC(=O)N1CCC[C@@H]1C(=O)N(C)[C@H](CC(C)C)C(=O)N[C@@H]1C(=O)N[C@@H](CC(C)C)C(=O)N[C@H](CC(C)C)C(=O)N(C)[C@H](CC(C)C)C(=O)N[C@@H](C)C(=O)N[C@H](CC(C)C)C(=O)N2CCC[C@@H]2C(=O)O[C@@H]1C	0.065
CC(=O)N1CCC[C@H]1C(=O)N(C)[C@H](CC(C)C)C(=O)N[C@@H]1C(=O)N(C)[C@@H](CC(C)C)C(=O)N[C@@H](CC(C)C)C(=O)N[C@H](CC(C)C)C(=O)N(C)[C@@H](C)C(=O)N[C@@H](CC(C)C)C(=O)N2CCC[C@H]2C(=O)O[C@@H]1C	7.4
CC(=O)N1CCC[C@H]1C(=O)N(C)[C@@H](CC(C)C)C(=O)N[C@@H]1C(=O)N[C@@H](CC(C)C)C(=O)N[C@@H](CC(C)C)C(=O)N(C)[C@H](CC(C)C)C(=O)N(C)[C@@H](C)C(=O)N[C@@H](CC(C)C)C(=O)N2CCC[C@H]2C(=O)O[C@@H]1C	1.1
CC(=O)N1CCC[C@H]1C(=O)N(C)[C@H](CC(C)C)C(=O)N[C@@H]1C(=O)N[C@@H](CC(C)C)C(=O)N[C@H](CC(C)C)C(=O)N[C@H](CC(C)C)C(=O)N[C@H](C)C(=O)N[C@H](CC(C)C)C(=O)N2CCC[C@@H]2C(=O)O[C@@H]1C	0.12

2 of these entries, quoted again:

compound	PAMPA (10^-6 cm/s)
CC(=O)N1CCC[C@H]1C(=O)N(C)[C@@H](CC(C)C)C(=O)N[C@@H]1C(=O)N[C@@H](CC(C)C)C(=O)N[C@@H](CC(C)C)C(=O)N(C)[C@H](CC(C)C)C(=O)N(C)[C@@H](C)C(=O)N[C@@H](CC(C)C)C(=O)N2CCC[C@H]2C(=O)O[C@@H]1C	1.1
CC(=O)N1CCC[C@H]1C(=O)N(C)[C@H](CC(C)C)C(=O)N[C@@H]1C(=O)N(C)[C@H](CC(C)C)C(=O)N(C)[C@@H](CC(C)C)C(=O)N(C)[C@H](CC(C)C)C(=O)N(C)[C@H](C)C(=O)N[C@H](CC(C)C)C(=O)N2CCC[C@H]2C(=O)O[C@@H]1C	6.5